Columns and labels:
[1] = test system: rat with obstructions in the bilateral common carotid arteries; test: Effect on ischemic cerebral dysfunction due to decrease in cerebral blood flow (ischemic attacks, death); format: in vivo; details: Fischer male rat, dose 3 mL/kg tail vein
Description: An experiment was performed on an effect of improving ischemic cerebral dysfunction caused by a decrease in a cerebral blood flow of a rat with obstructions in the bilateral common carotid arteries in the case of administration of rHSA-FecycP.
For each Fischer male rat (8-week-old), the bilateral common carotid arteries were ligated under ether light anesthesia to induce cerebral ischemia. rHSA-FecycP (1 and 3 mL/kg) or 5% rHSA (control, 3 mL/kg) was administered into the tail vein immediately after obstructions in the bilateral common carotid arteries, and observations were performed on the presence or absence of manifestation of ischemic attacks (paroxysmal jumping and convulsion) during 3.5 hours after completion of the obstructions and on the life or death during 24 hours after completion of the obstructions during wakefulness. The manifestation rate of the ischemic attacks (the number of manifestation cases/the number of use cases×100(%)) and death rate (the number of death cases/the number of use cases×100(%)) were used as indexes to examine the effect of the drug.

[2] = test system: rat isolated hearts; test: Ischemic cardiac dysfunction by slow perfusion in rat isolated hearts (Langendorff method); details: whole course, slow perfusion ischemia and reperfusion; drug 0.2 mL/min for 60 minutes; n=7
Description: The heart of each Wister male rat (8- to 10-week-old) was removed under pentobarbital sodium anesthesia, and a cannula was inserted into the aorta in accordance with the Langendorff method to perfuse with a nutrition solution. In order to measure a heart function, i.e., the force of heart contraction, a balloon containing physiological saline was inserted into the left ventricle, and the resultant pressure waveform was analyzed to determine the end-diastolic pressure and maximum rising rate of the left ventricular pressure. As a nutrition solution, a Krebs-Henseleit solution (NaCl 118 mM, KCl 4.7 mM, KH2PO4 1.2 mM, MgSO4 1.2 mM, CaCl2 2.5 mM, NaHCO3 25 mM, glucose 11 mM, pH 7.4) aerated with a 95% O2-5% CO2 mixed gas and incubated at 37° C. was used, and the solution was perfused at a flow rate of 20 mL/min for 20 minutes to stabilize the state. […]
For each experiment group, at the respective time points from the start of slow perfusion to 120 minutes later, the end-diastolic pressure and maximum rising rate of the left ventricular pressure were measured.
Note that, for a normal control group (n=7), which was subjected to perfusion at a rate of 20 mL/min during the entire term of the experiment, the end-diastolic pressure and maximum rising rate of the left ventricular pressure were measured for comparison in the same way as above. […]

[3] = test system: blood flow volume at the lower limb of blood-removed rats; test: Effect on rat model with hemorrhagic blood flow decrease (Laser Doppler blood flow imaging of lower limb); format: in vivo; details: Wister male rat, about 70% blood exchange with 5% rHSA then 30% blood removal; dose 30% of total blood volume into right femoral vein; 25 minutes after administration
Description: Effect on rat model with hemorrhagic blood flow decrease For each Wister male rat (8-week-old), blood removal was performed under sevoflurane inhalation anesthesia (introduction 2.0%, maintenance 1.5%) to decrease the blood flow volume. Removal of 2 mL of blood from the right common carotid artery and administration of 2 mL of 5% rHSA from the right femoral vein were repeated nine times to exchange about 70% of the total blood volume with 5% rHSA, and ten minutes later, 30% of the total blood volume was removed from the right common carotid artery. After completion of blood removal, rHSA-FecycP or 5% rHSA as a control was rapidly administered to the right femoral vein in an amount of 30% of the total blood volume. Note that the blood removal and administration were performed at a rate of 1 mL/minute. Before blood removal, immediately after completion of blood removal, and 25 minutes after completion of administration, blood flow volumes at the lower limb were noninvasively measured using a Laser Doppler blood flow imaging device (manufactured by Monte System Corporation, MoorLDI-LKII).

For “5% rHSA: recombinant human serum albumin, 5% solution, used as a control [reference compound]”, the “Manifestation rate of ischemic attacks” value ([1]; during 3.5 hours after obstruction) was 80%, the Death rate ([1]; during 24 hours after obstruction) was 100% and the “End-diastolic pressure of the left ventricular pressure” value [2] was “changed almost in the same way as the ischemia control group”. For the same substance, the “Maximum rising rate of the left ventricular pressure” value [2] was “changed almost in the same way as the ischemia control group” and the “Blood flow volume at the lower limb” value [3] was “did not recover and further decreased”.
